# AlphaSeq binding of Ab-14 heavy chain variants to a spike HR2 peptide

Data: MIT Lincoln Laboratory AlphaSeq set, Li et al. 2023, doi:10.1038/s41467-023-39022-2, as distributed in FLAb.

All variants were tested on one target, the spike HR2 peptide PDVDLGDISGINAS (SARS-CoV-2).

The variants keep the light chain, the linker and the frameworks of Ab-14 (scFv order VH, the linker GGGGSGGGGSGGGGS, VL).
VH: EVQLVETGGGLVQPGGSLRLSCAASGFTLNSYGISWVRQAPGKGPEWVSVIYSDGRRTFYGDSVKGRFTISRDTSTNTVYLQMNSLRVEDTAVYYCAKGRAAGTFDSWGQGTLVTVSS
VL: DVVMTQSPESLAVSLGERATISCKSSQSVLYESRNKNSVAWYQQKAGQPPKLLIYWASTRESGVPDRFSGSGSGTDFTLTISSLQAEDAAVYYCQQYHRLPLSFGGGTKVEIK

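The variants were designed computationally from a first round of random CDR variants and then made and measured. Group labels follow the data file (Ctrl: baseline library sampled from a position-specific scoring matrix, with some repeated check sequences; Rand: our label for a block that the file lists under HC and that is probably the random mutants of the ten best first-round binders; GP: Gaussian process model; GPLM: also part of the Gaussian process libraries; HC: hill climbing; Gen: genetic algorithm; Gibbs: Gibbs sampling; a sequence that several methods proposed may carry one label only). Affinity was read by AlphaSeq, a pooled yeast mating assay with surface-displayed partners. Mating (16 h, 30 °C) was followed by selection of diploids and sequencing of their barcodes. Scores were corrected for input abundance and mapped to Kd with protein pairs of known affinity run in the same pool. There are six technical replicates.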

The whole VH of each variant is written out. This list holds designs with at most six substitutions. Numbers give log10(Kd / nM), so 0 is 1 nM and 3 is 1 µM. Smaller is tighter. The mean shown is taken over the replicates in which the pair was detected. "not detected" marks a missing value. The strain was present, yet no cells mated with the target were sequenced in any replicate, which points to weak or no binding. The authors averaged sequences with at least three values out of six and counted those with two or fewer as poor binders. Of ten entries with the parent sequence, four were seen in most replicates (averages 0.34 to 2.37), three in one and three in none, so single entries are noisy. The range of this assay differs from that of the first round, and the authors advise against merging the two. Three control strains display no target. For all heavy chain designs, 1% of the pairings with them gave a signal, with a median of 2.08 and one signal in twenty below 0.84, so weak values seen in few replicates may be background.

VH,group,"mean, log10 nM",seen in
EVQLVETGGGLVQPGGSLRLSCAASGFTLNDYGISWVRQAPGKGPEWVSVIYSDGRRTFYGDSVKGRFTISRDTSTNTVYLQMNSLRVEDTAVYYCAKGREAGTFDTWGQGTLVTVSS,GPLM_Gen,-0.61,6 of 6
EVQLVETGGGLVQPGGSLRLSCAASGTTLNSYGISWVRQAPGKGPEWVSVIYSDGRRTFYMDSVKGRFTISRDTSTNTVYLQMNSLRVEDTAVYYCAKGRAAGTFDNWGQGTLVTVSS,Ctrl,not detected,0 of 6
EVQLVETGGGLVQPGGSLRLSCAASGFTLTSYGISWVRQAPGKGPEWVSVIYSDGRRTFYGDSVKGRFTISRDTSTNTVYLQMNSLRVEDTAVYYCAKGRAAVTVDSWGQGTLVTVSS,Ctrl,not detected,0 of 6
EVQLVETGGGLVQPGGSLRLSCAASGFELNEYGISWVRQAPGKGPEWVSVIYSDGRRTFYGDSVKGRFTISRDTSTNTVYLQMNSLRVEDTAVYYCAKGRWAGTFDSWGQGTLVTVSS,GP_Gibbs,0.69,1 of 6
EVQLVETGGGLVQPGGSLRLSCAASGFQLNSYGISWVRQAPGKGPEWVSVIYSDGRRTFYGDSVKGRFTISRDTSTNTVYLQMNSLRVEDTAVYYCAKGRVAGTFDSWGQGTLVTVSS,GPLM_Gen,-0.89,2 of 6
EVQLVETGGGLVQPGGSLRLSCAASGFTLNEYGISWVRQAPGKGPEWVSVIYSDGRRTFYTDSVKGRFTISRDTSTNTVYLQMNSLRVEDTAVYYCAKGRAAGTGDSWGQGTLVTVSS,Ctrl,not detected,0 of 6
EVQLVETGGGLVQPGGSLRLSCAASGFDLNEYGISWVRQAPGKGPEWVSVIYSDGRRTFYGDSVKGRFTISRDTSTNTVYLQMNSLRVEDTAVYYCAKGQAAGTFDKWGQGTLVTVSS,GP_Gen,0.18,6 of 6
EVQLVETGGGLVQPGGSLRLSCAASGFTLNSWMISWVRQAPGKGPEWVSVIYSDGRRTFYSDSVKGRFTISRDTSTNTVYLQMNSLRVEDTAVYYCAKGRAGGTFDSWGQGTLVTVSS,Rand,not detected,0 of 6
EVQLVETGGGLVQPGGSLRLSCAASGFELNEYGISWVRQAPGKGPEWVSVIYSDGRRTFYGDSVKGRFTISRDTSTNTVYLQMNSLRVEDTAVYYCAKGTAAGTFDSWGQGTLVTVSS,GP_Gen,1.05,6 of 6
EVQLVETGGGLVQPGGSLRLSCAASGFELNSYGISWVRQAPGKGPEWVSVIYSDGRRTFYGDNVKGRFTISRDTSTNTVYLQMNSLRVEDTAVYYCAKGQTAGTFDSWGQGTLVTVSS,GP_Gen,0.61,6 of 6
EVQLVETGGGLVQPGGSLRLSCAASGFTLNSYGISWVRQAPGKGPEWVSVIYSDGRRTFYGDSVKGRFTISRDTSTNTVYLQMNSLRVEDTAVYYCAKGTLAGTFDSWGQGTLVTVSS,Ctrl,0.58,6 of 6
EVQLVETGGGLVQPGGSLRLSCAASGFELNKYGISWVRQAPGKGPEWVSVIYSDGRRTFYGDSVKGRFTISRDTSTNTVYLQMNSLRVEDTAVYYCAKGAAAGTFDSWGQGTLVTVSS,Ctrl,0.42,6 of 6
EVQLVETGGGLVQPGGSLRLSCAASDFTLNEYGISWVRQAPGKGPEWVSVIYSDGRRTFYGDSVKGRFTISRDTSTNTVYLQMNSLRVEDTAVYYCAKGRAAVTFDTWGQGTLVTVSS,GP_HC,not detected,0 of 6
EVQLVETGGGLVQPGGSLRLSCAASGFTLNNYGISWVRQAPGKGPEWVSVIYSDGRRTFYDDSVKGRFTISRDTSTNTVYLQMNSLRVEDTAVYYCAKGQVAGTFDSWGQGTLVTVSS,GP_HC,1.50,2 of 6
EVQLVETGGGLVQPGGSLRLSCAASGFTINSYGISWVRQAPGKGPEWVSVIYSDGRRTFYGDSVKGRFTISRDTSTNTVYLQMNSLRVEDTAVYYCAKLRTAGRFDSWGQGTLVTVSS,Ctrl,not detected,0 of 6
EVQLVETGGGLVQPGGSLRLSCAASGFTLNSYGISWVRQAPGKGPEWVSVIYSDGRRTAYGDSVKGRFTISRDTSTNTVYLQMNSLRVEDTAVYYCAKGRAAGTFDDWGQGTLVTVSS,Ctrl,1.71,4 of 6
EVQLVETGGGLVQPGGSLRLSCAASGFTLNSYGISWVRQAPGKGPEWVSVIYSDGRRQFYGDSVEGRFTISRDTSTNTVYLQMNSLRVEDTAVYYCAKGRAAGTFDSWGQGTLVTVSS,Ctrl,not detected,0 of 6
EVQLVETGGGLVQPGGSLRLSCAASGFALNSYGISWVRQAPGKGPEWVSVIYSDGRRTFYGDSVKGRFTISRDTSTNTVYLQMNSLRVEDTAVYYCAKGRAAGTFHSWGQGTLVTVSS,Ctrl,not detected,0 of 6
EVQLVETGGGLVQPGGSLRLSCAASGFTGDSYGISWVRQAPGKGPEWVSVIYSDGRRTFYGDSVKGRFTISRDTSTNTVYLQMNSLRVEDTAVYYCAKGPAAGTALSWGQGTLVTVSS,Rand,not detected,0 of 6
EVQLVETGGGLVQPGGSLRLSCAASGFTLNDYGISWVRQAPGKGPEWVSVIYSDGRRTFYKDSVKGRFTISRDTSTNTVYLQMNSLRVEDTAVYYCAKGRTAGTFDSWGQGTLVTVSS,GPLM_Gen,-0.01,6 of 6
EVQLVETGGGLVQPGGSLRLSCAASGFDLNSYGISWVRQAPGKGPEWVSVIYSDGRRTFYADSVKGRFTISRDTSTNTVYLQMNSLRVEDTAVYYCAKGKAAGKFDSWGQGTLVTVSS,GP_Gibbs,not detected,0 of 6
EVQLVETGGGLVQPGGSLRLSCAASKFSLNSYGISWVRQAPGKGPEWVSVIYSDGRRTFYADSVKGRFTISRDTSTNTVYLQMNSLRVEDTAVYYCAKGKNAGTFDSWGQGTLVTVSS,GP_Gen,-0.10,4 of 6

Excerpt, the final 3 entries:

{"VH": "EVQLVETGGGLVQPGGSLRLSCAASGFTLNDYGISWVRQAPGKGPEWVSVIYSDGRRTFYKDSVKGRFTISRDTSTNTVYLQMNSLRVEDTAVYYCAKGRTAGTFDSWGQGTLVTVSS", "group": "GPLM_Gen", "mean, log10 nM": "-0.01", "seen in": "6 of 6"}
{"VH": "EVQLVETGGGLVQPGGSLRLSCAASGFDLNSYGISWVRQAPGKGPEWVSVIYSDGRRTFYADSVKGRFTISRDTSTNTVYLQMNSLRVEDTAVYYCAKGKAAGKFDSWGQGTLVTVSS", "group": "GP_Gibbs", "mean, log10 nM": "not detected", "seen in": "0 of 6"}
{"VH": "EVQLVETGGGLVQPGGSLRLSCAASKFSLNSYGISWVRQAPGKGPEWVSVIYSDGRRTFYADSVKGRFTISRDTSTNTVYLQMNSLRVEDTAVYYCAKGKNAGTFDSWGQGTLVTVSS", "group": "GP_Gen", "mean, log10 nM": "-0.10", "seen in": "4 of 6"}